As usually defined, the Ki is a dissociation constant, usually derived from enzyme kinetics or from competition with a known ligand. Read a low Ki as tighter binding.

Protein sequences, listed by entry. Tags and fused reporters are not part of them.
UniProt P33535, whole entry: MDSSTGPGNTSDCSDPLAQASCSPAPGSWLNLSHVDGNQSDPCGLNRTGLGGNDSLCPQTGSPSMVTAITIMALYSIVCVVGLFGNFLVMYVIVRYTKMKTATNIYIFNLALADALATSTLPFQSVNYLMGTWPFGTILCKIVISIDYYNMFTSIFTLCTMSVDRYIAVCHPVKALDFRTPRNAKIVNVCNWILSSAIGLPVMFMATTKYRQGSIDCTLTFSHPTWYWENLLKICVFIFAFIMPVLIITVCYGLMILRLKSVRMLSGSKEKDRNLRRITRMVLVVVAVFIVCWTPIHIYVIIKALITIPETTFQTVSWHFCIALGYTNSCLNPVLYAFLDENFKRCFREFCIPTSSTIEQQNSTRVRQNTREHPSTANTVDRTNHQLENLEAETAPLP

Data on 1 compound can be found in BindingDB's records for doi:10.1016/s0891-0618(03)00032-2 (University of Michigan, 2003).

This assay addresses Mu-type opioid receptor (Rattus norvegicus, UniProt P33535).

Consider `C[C@@H](NC(=O)[C@@H](N)Cc1ccc(O)cc1)C(=O)NCC(=O)N(C)[C@@H](Cc1ccccc1)C(=O)NCCO` [CAS_100929-53-1], for which the affinity, expressed as Ki, was 32 nM.
